Data reported in patent publication US10323013B2, “Inhibitors of the IRE-1/XBP-1 pathway and methods of using thereof” (H. LEE MOFFITT CANCER CENTER AND RESEARCH INSTITUTE, INC., priority 2013, dated 2019).

By UniProt entry, the sequences of proteins in these tests, tags left out. Residues count along the entry.
UniProt Q9EQY0, 21-977 limits assumed: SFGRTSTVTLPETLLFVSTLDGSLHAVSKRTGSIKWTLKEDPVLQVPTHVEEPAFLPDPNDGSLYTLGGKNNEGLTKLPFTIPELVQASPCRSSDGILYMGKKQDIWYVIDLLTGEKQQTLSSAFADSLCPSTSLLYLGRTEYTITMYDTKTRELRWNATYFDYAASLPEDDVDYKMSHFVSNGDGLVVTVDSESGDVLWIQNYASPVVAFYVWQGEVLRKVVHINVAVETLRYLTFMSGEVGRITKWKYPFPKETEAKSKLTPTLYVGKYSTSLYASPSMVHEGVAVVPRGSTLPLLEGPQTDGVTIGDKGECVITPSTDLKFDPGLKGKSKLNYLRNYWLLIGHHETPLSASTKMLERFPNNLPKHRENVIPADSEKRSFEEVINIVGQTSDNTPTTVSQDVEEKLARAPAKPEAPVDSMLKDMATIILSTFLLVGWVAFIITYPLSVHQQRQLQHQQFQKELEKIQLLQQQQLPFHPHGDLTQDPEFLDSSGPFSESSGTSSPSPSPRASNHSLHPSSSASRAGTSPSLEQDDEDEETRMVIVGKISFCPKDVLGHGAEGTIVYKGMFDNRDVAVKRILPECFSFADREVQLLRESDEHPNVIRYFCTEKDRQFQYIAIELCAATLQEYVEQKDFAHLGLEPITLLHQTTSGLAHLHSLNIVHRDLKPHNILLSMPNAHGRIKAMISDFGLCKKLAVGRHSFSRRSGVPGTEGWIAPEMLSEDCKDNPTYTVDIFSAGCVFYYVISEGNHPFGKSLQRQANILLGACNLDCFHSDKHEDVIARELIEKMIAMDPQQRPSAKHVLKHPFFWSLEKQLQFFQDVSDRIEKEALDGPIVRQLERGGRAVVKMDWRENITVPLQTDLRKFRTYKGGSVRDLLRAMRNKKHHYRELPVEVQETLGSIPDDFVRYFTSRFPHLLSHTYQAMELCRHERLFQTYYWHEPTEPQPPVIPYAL
UniProt O75460, 547-977 limits assumed: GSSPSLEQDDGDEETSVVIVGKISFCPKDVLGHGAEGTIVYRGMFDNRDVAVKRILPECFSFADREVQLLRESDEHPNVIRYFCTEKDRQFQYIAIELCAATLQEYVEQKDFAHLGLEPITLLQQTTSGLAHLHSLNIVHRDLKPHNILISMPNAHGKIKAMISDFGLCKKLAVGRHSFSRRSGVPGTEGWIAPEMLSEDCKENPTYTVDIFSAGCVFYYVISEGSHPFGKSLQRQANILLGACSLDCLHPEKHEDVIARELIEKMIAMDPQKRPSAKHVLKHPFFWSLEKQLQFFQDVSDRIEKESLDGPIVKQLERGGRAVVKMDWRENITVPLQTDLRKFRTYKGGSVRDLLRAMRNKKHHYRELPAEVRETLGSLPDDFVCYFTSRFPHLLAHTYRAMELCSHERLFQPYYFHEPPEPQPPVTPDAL

Experiments:
XBP-1s expression = assay: Inhibition of XBP-1s expression in LPS-stimulated mouse B cells (immunoblots); assay type: cell-based; conditions: LPS 48 h, then inhibitor 20 μM for 24 h (Example 3 prints 20 mM)
XBP-1 mRNA splicing = XBP-1 mRNA splicing by RT-PCR; assay type: cell-based, human; conditions: MEC1 and MEC2 cells, 20 μM, 48 h
IRE-1 = IRE-1 (Mus musculus (Mouse), UniProt Q9EQY0); assay: Pull-down of IRE-1 from mouse B cell lysates with biotin-tagged derivative; conditions: anti-biotin antibody on protein G-conjugated agarose beads
recombinant hIRE-1 = recombinant hIRE-1 (Homo sapiens (Human), UniProt O75460); assay: In vitro IRE-1 RNase FRET-suppression assay; assay type: biochemical; conditions: read-out: IC50 in FRET-suppression assay; 5 nM hIRE-1, 50 nM XBP-1 RNA

O=Cc1c(O)ccc2c3c(c(=O)oc12)CNCC3
inhibition of XBP-1s expression (in words) (XBP-1s expression): potently suppress
inhibition of XBP-1 mRNA splicing and XBP-1s expression (in words) (XBP-1 mRNA splicing): can inhibit splicing of XBP-1 mRNA and expression of XBP-1s

O=Cc1c(O)ccc2c3c(c(=O)oc12)CN(C(=O)CCCCCNC(=O)CCCC[C@@H]1SC[C@@H]2NC(=O)N[C@@H]21)CC3
pull-down of IRE-1 (in words) (IRE-1): can pull down IRE-1
IC50 (recombinant hIRE-1): 0.136 µM
